## scFv variants of Ab-14 (heavy chain) against a SARS-CoV-2 spike peptide

Source: Li et al. 2023 (doi:10.1038/s41467-023-39022-2), MIT Lincoln Laboratory and A-Alpha Bio; data file from the FLAb repository.

All variants were tested on one target, the spike HR2 peptide PDVDLGDISGINAS (SARS-CoV-2).

The variants keep the light chain, the linker and the frameworks of Ab-14 (scFv order VH, three GGGGS repeats, VL).
VH: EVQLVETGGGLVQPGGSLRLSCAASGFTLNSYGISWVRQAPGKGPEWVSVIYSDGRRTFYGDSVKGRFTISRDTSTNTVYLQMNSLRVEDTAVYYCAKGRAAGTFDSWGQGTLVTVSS
VL: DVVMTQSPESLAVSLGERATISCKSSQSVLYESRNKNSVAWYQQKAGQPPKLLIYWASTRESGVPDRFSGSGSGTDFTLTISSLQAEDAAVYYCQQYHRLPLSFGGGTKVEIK

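The parent was found by panning a naive human phage display library on the peptide. These sequences belong to a second round, designed from the earlier measurements on random variants of the parent. Group labels follow the data file (Ctrl: baseline library sampled from a position-specific scoring matrix, with some repeated check sequences; GPLM: also part of the Gaussian process libraries; Gen: genetic algorithm; Gibbs: Gibbs sampling; a sequence that several methods proposed may carry one label only). The scFvs were displayed on barcoded MATa yeast, the peptide on MATalpha yeast. Pairs that bind mate more often; barcode pairs of the diploids are counted by sequencing. A regression on co-assayed BCL2-family reference pairs converts the normalised counts of each replicate to an apparent Kd. There are six technical replicates.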

The parent's heavy chain CDRs are GFTLNSYGIS, VIYSDGRRTFYGDSVK, GRAAGTFDS; each variant's own CDRs replace them letter for letter.
Numbers give log10(Kd / nM), so 0 is 1 nM and 3 is 1 µM. Smaller is tighter.
A pair that was not seen in that replicate is written "ND"; this usually means weak binding, but a binder can also be missed.
Empty control strains, which show no peptide, gave a signal in 1% of pairings with all heavy chain designs; the median was 2.08 and 95% of these signals were weaker than 0.84. No background was subtracted. The control count says in how many pairings with the empty strains this scFv gave a signal, with their mean in brackets.
A sequence that the file lists under several names has all its replicates listed entry by entry, parted by semicolons.
A sequence measured in both rounds can read differently, since the two assays cover different ranges.
The authors' rule: three or more of the six replicates give a measured affinity, fewer mean a poor binder.

| CDR-H1 | CDR-H2 | CDR-H3 | group | log10 Kd, replicates | empty controls |
|---|---|---|---|---|---|
| GFTLNSYGIS | VIYADGRRTFYGDSVK | RQAAGTFDS | Ctrl | ND ND ND ND ND ND | 0/18 |
| HFTLNSYGIS | VIYSDGRRTFYGDSVK | GYAAGTFES | Ctrl | ND ND ND ND ND ND | 0/18 |
| GFTLNSYGIS | VIYSDGRRTAYGPSVK | GRASVTFDS | Ctrl | ND ND ND ND ND ND | 0/18 |
| GFMLDSYGIS | VIYSDGRRTFYGDSVK | GRLSGTADS | Ctrl | ND ND ND ND ND ND | 0/18 |
| GFHLNSYGIS | VIYSDGVRTFYGDSVK | GRAAGTFDL | Ctrl | ND ND ND ND ND ND | 0/18 |
| GFTLNEYGIS | VIYSDGQRTFYSDSVK | GRAAGTFDS | Ctrl | 0.03 -0.16 0.28 0.22 0.66 0.25 | 0/18 |
| GFTLNSYGRS | VIYADGRRTFYQDSVK | GRAAGTFDM | Ctrl | ND ND ND ND ND ND | 1/18 (1.54) |
| GFTLNSYGIS | VIYSDGRRTFYGDSVK | GNAAGTFDL | Ctrl | 1.99 1.49 0.92 0.76 1.08 0.78 | 1/18 (2.89) |
| LFTLNQYGIS | VIYSDGRRTRYGDEVK | GRAAGWFDS | Ctrl | ND ND ND ND ND ND | 0/18 |
| GFMLNSYGIS | VIYSDGRKTFYGDSVK | GRAAGTFDS | Ctrl | ND 1.99 ND ND ND ND | 0/18 |
| GFDLNSYGIS | VIYSDGRRTFYTDSVK | GEAAGTFDS | Ctrl+GPLM_Gibbs | 0.10 0.55 0.14 0.28 0.53 0.36; -0.25 -0.23 -0.38 -0.52 -0.48 -0.21 | 2/36 (2.70) |
| GFTLNSYGIS | VIYSDGRRTFYTDSVK | GPAAGTFDS | Ctrl | ND ND ND ND ND ND | 0/18 |
| GFTLNDYGIS | VIYSDGRRTFYADSVK | GRAAGDFDS | Ctrl | 1.31 0.96 0.84 0.93 0.48 1.20 | 1/18 (3.34) |
| GFTLNSYGIS | VIYSDGIRTFYGDSVK | GSAAGTFDS | Ctrl | 1.65 2.07 1.11 2.58 1.51 0.93 | 0/18 |
| GFNLNSYGIS | VIYSDGRRTFYGDSVK | GRAAVGFDQ | Ctrl | ND ND ND ND ND ND | 0/18 |
| GFTINSYGIS | VIYSDGRRTFYGDSVK | GRLAGTFDS | Ctrl | ND 2.03 1.50 2.03 3.24 2.22 | 1/18 (2.57) |
| GFSLNSYGIS | VIYSDGRRTFYSDSVK | GGQAGTFDS | Ctrl | ND ND -0.20 ND ND ND | 0/18 |
| GFNLNSYGIS | VIYGDGRRTFYGDSVK | GRAAGTFDS | Ctrl | ND ND ND ND 1.80 1.91 | 0/18 |
| GFTLNSYGIS | VVYSDGLRTFYGDSVK | GRAAGTFDS | Ctrl | ND ND ND ND ND ND | 0/18 |
| GFVLNSYGIS | VIYSDGRRTFYGDSVK | GTAAGTFDD | Ctrl | ND ND ND ND 3.20 2.43 | 0/18 |
| GFTLNSYGIT | VIYSDGRRTFYGDSVK | GRAAGTFDS | Ctrl | ND ND ND ND ND ND | 0/18 |
| GFTLNDYGIS | VIYSDGRRTFYGDSVK | GKAAGTFHS | Ctrl | ND ND ND ND ND ND | 0/18 |
| GFTLNEYGIS | VIYSDGRRTFYGDSVK | GRAAGTFNS | Ctrl | ND ND ND ND ND ND | 0/18 |
| GFCLNSYGIS | VIYSDGRRTFYQDSVK | GSAAGTFDS | Ctrl | ND ND ND ND ND ND | 0/18 |
| GFTLNMYGIS | VIYSDGRRTFYGDSVK | GRAAGTFDS | Ctrl | 1.85 1.15 1.11 0.95 0.68 1.57 | 0/18 |
| GSELNMYGIS | VIYSDGRRTFYGDSVR | GRAAGTFDS | Ctrl | ND 2.98 ND ND ND 2.97 | 0/18 |
| GFVLNSHGIS | VIYSDGRRTFYGDSVK | GRAAGTFDS | Ctrl | 1.21 2.31 1.94 4.42 1.69 2.57 | 1/18 (3.24) |
| GFTLNEYGIS | VIYADGRRTFYIDAFK | GMIAGTFMS | Ctrl | ND ND ND ND ND ND | 0/18 |
| GFTLNTYGIS | VIYSDGLRTFYGDSVK | GRAAGTFDS | Ctrl | 1.08 1.64 1.13 1.42 ND 1.81 | 0/18 |
| GATLNSYGIS | VIYSDGRRTFYIDSVK | GTGAGTFDN | Ctrl | ND ND ND ND ND ND | 0/18 |
| GFDLNSYGIN | VIYSDGIRTAYGDSVK | GRAAGTFDS | Ctrl | 2.14 2.32 2.16 1.43 1.42 2.08 | 0/18 |
| GFNLNSYGIS | VIYSNGERTFYIDSVK | GRAAGTFDS | Ctrl | ND ND ND ND ND ND | 0/18 |
| GFDLNSYGIS | VIYSDGRRTFYGDSVK | GHAAGTFDS | Ctrl+GPLM_Gen | ND -0.14 ND -0.55 0.11 0.25; 0.65 0.06 0.17 0.01 -0.18 0.27 | 0/36 |
| GFTLNSYGIS | VIYSDGRRAFYGDSVK | GRSHGTFDS | Ctrl | ND ND ND ND ND ND | 0/18 |
| GFTLNSYGIS | VIYSDGRRTFYGDSVK | GREAGEFDT | Ctrl | ND ND ND ND ND ND | 0/18 |
| GFTINSYGIS | VIYSDGRRTFYGDEVK | GRAAGTVDE | Ctrl | ND ND ND ND ND ND | 0/18 |
| GFTRNSYGIS | VIYSDGRRTFYGDSVK | GRAAGSFDS | Ctrl | 0.62 0.54 1.18 1.29 2.98 0.95 | 1/18 (2.50) |

Again, the first 6 entries without any signal:

| CDR-H1 | CDR-H2 | CDR-H3 | group | log10 Kd, replicates | empty controls |
|---|---|---|---|---|---|
| GFTLNSYGIS | VIYADGRRTFYGDSVK | RQAAGTFDS | Ctrl | ND ND ND ND ND ND | 0/18 |
| HFTLNSYGIS | VIYSDGRRTFYGDSVK | GYAAGTFES | Ctrl | ND ND ND ND ND ND | 0/18 |
| GFTLNSYGIS | VIYSDGRRTAYGPSVK | GRASVTFDS | Ctrl | ND ND ND ND ND ND | 0/18 |
| GFMLDSYGIS | VIYSDGRRTFYGDSVK | GRLSGTADS | Ctrl | ND ND ND ND ND ND | 0/18 |
| GFHLNSYGIS | VIYSDGVRTFYGDSVK | GRAAGTFDL | Ctrl | ND ND ND ND ND ND | 0/18 |
| GFTLNSYGRS | VIYADGRRTFYQDSVK | GRAAGTFDM | Ctrl | ND ND ND ND ND ND | 1/18 (1.54) |